Bounds are passed on as bounds.

The experiment deals with Vero. The experiment in a line: Minimum cytotoxic concentration in vero cells of African green monkey kidney. The conditions noted are these: Chlorocebus sabaeus.
In the case of `CP(=O)(O[C@@H]1C(O)O[C@H](n2cnc3c(N)ncnc32)[C@H]1O)O[C@H]1C(O)O[C@@H](n2cnc3c(N)ncnc32)[C@@H]1O` (stereo partly drawn), the MCC was > 400 µg/mL.

`CP(=O)(OC[C@H]1OC(n2cnc3c(N)ncnc32)[C@@H](O)[C@@H]1O)OC[C@H]1OC(n2cnc3c(N)ncnc32)[C@@H](O)[C@@H]1O` (stereo partly drawn): the MCC was > 400 µg/mL.

Turning to `CP(=O)(OC[C@H]1OC(n2cnc3c(N)ncnc32)[C@@H](O)[C@@H]1O)O[C@H]1[C@H](O)C(n2cnc3c(N)ncnc32)O[C@@H]1O` (stereo partly drawn), the MCC is > 100 µg/mL.
